The values below are quoted from earlier work in patent publication US20190038588A1, “NOVEL CLASS OF COMPOUNDS FOR THE TREATMENT OF CARDIOVASCULAR DISEASE” (STICHTING KATHOLIEKE UNIVERSITEIT, priority 2016, published 2019).

The data set addresses T1, HMG-CoA reductase (Homo sapiens, UniProt P04035).
T1 sequence (P04035 1-888): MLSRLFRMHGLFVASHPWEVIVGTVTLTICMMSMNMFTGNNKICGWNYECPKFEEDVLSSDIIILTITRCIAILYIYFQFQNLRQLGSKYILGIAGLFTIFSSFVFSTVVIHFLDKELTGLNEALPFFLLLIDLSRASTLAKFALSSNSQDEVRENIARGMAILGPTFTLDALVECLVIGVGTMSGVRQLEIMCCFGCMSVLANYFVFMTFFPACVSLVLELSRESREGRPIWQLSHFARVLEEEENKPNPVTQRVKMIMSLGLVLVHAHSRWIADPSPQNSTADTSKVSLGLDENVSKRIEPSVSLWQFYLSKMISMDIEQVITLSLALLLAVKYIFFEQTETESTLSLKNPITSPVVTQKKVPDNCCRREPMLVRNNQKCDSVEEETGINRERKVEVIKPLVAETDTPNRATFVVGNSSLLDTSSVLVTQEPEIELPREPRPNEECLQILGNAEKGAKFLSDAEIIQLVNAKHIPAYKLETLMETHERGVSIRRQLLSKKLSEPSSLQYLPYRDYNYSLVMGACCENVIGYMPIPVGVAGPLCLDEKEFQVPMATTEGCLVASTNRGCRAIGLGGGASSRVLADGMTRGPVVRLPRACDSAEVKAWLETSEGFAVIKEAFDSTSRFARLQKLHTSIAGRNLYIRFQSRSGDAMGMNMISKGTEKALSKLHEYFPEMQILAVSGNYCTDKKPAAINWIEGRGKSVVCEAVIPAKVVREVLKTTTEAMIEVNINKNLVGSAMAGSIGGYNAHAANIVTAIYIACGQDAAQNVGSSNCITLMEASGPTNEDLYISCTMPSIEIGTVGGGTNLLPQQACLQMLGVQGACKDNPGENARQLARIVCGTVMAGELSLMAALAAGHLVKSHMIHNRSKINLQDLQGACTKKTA
The note with it: Kajinami K, 2003; Istvan ES, 2001; cited from earlier work.

By IC50 is commonly meant the point on the concentration scale where inhibition reaches its midpoint. As for `CC(C)c1c(C(=O)Nc2ccccc2)c(-c2ccccc2)c(-c2ccc(F)cc2)n1CC[C@@H](O)C[C@@H](O)CC(=O)O` [atorvastatin carboxylic acid, reference compound], the IC50 was 0.008 µM.
Regarding `CC[C@H](C)C(=O)O[C@H]1C[C@H](O)C=C2C=C[C@H](C)[C@H](CC[C@@H](O)C[C@@H](O)CC(=O)O)[C@H]21` [pravastatine], the IC50 was 0.046 µM.
